Measured values from patent publication US5459256A, “Lipophilic, aminohydrolase-activated prodrugs” (priority 1991, dated 1995).

Assay: physchem
Conditions: octanol/ph 7.0 buffer, pH 7, Log P
Protocol: Measurement of Octanol-Water Partition Coefficients.
n-Octanol-water partition coefficients (P) were determined by a microscale shake-flask procedure, (Ford, H. et al Abstracts of Papers, 200th National Meeting of the American Chemical Society, Washington, D.C.; American Chemical Society: Washington, D.C., 1990; CARB 13) which was modification of an earlier method (Nahum, A. & Horvath, C. J. Chromatogr. 1980, 192, 315). A 20 μL aliquot of a 0.5 mg/mL DMSO solution of the dideoxynucleoside was dissolved in 1.0 mL of octanol-saturated, pH 7.0, 0.01M potassium phosphate buffer. This was mixed thoroughly with 1.0 ml of buffer-saturated n-octanol in a 2-mL Mixxor apparatus at 24°-26° C. and then allowed to stand for 15 min. The phases were separated, centrifuged at 600×g for 5 min, and the relative concentration of sample in each phase determined by HPLC analysis of a 50 μl aliquot. The partition coefficient was calculated by dividing the absolute area of the appropriate integrated peak from the octanol phase by that of the buffer phase (Table I).
Octanol/pH 7.0 buffer partition coefficients were determined using a newly developed microscale method. […] The addition of a methyl group normally increases the log P value of a compound by about 0.5.

Nc1ncnc2c1ncn2[C@@H]1O[C@H](CO)C[C@@H]1F [Compound 1a, 2', 3'-dideoxy-2'-fluoroarabinosyladenine, reference compound]
logD: -0.18 ± 0.01
